{
  "source": "patent US12478601B2",
  "about": "“Dietary product devoid of at least two non essential amino acids” (CANCER RESEARCH TECHNOLOGY LIMITED, priority 2016, dated 2025)",
  "test_system": "HCT116, DLD1 and SW480",
  "test": "Synergy score screen: chemotherapeutic agents in low serine, glycine, cysteine medium, cell counts",
  "conditions": "average synergy score for three colorectal cells lines, drug at 0.01, 0.1 and 1 uM for 48 hours, cysteine (17-23 uM) vs complete medium (100 uM)",
  "data": [
    {"substance": "Cetuximab", "values": [
      {"measurement": "SYNERGY SCORE", "value": 7.68}
    ]}
  ]
}
